Reference: ChEMBL document CHEMBL3244195, “Antidotes or organophosphate poisoning. 2. Thiadiazole-5-carboxaldoximes” (1979)

What was measured:
Rattus norvegicus [1] = test: Reduction of diisopropyl fluorophosphate-induced hypothermia in rat at 160 mg/kg, ip administered 1 hr after diisopropyl fluorophosphate-challenge measured after 3 to 4 hrs relative to control; design: scale not given: the % may be the effect or the level left; conditions: route intraperitoneal
Rattus norvegicus [2] = test: Reduction of paraoxon-induced hypothermia in rat at 160 mg/kg, ip administered 1 hr after paraoxon-challenge measured after 3 to 4 hrs relative to control; design: scale not given: the % may be the effect or the level left; conditions: route intraperitoneal
Rattus norvegicus [3] = test: Reduction of diisopropyl fluorophosphate-induced hypothermia in rat at 80 mg/kg, ip administered 1 hr after diisopropyl fluorophosphate-challenge measured after 3 to 4 hrs relative to control; design: scale not given: the % may be the effect or the level left; conditions: route intraperitoneal
Rattus norvegicus [4] = test: Reduction of diisopropyl fluorophosphate-induced hypothermia in rat at 150 mg/kg, ip administered 1 hr after diisopropyl fluorophosphate-challenge measured after 3 to 4 hrs relative to control; design: scale not given: the % may be the effect or the level left; conditions: route intraperitoneal
Rattus norvegicus [5] = test: Reduction of paraoxon-induced hypothermia in rat at 80 mg/kg, ip administered 1 hr after paraoxon-challenge measured after 3 to 4 hrs relative to control; design: scale not given: the % may be the effect or the level left; conditions: route intraperitoneal
Rattus norvegicus [6] = test: Reduction of paraoxon-induced hypothermia in rat at 150 mg/kg, ip administered 1 hr after paraoxon-challenge measured after 3 to 4 hrs relative to control; design: scale not given: the % may be the effect or the level left; conditions: route intraperitoneal
Mus musculus [7] = test: Antidotal effect in hybrid CC57 mouse assessed as protection against sarin-induced poisoning by measuring sarin LD50 at 47.2 mg/kg, ip dosed 1.5 mins after sarin challenge and measured after 24 hrs co-treated with 37.5 mg/kg, ip atropine sulfate (reference value: 229 ug/kg)
Rattus norvegicus [8] = test: Reduction of diisopropyl fluorophosphate-induced hypothermia in rat at 250 mg/kg, ip administered 1 hr after diisopropyl fluorophosphate-challenge measured after 3 to 4 hrs relative to control; design: scale not given: the % may be the effect or the level left; conditions: route intraperitoneal
Rattus norvegicus [9] = test: Reduction of paraoxon-induced hypothermia in rat at 250 mg/kg, ip administered 1 hr after paraoxon-challenge measured after 3 to 4 hrs relative to control; design: scale not given: the % may be the effect or the level left; conditions: route intraperitoneal
Mus musculus [10] = test: Antidotal effect in hybrid CC57 mouse assessed as therapeutic ratio for protection against sarin-induced poisoning by measuring sarin LD50 at 250 mg/kg, ip dosed 1.5 mins after sarin challenge and measured after 24 hrs co-treated with 37.5 mg/kg, ip atropine sulfate relative to sarin alone treated mouse
Mus musculus [11] = test: Antidotal effect in hybrid CC57 mouse assessed as protection against sarin-induced poisoning by measuring sarin approximate lethal dose at 100 mg/kg, ip dosed 1.5 mins after sarin challenge and measured after 24 hrs co-treated with 37.5 mg/kg, ip atropine sulfate (reference value: 460 ug/kg)
Rattus norvegicus [12] = test: Antidotal effect in WAG rat assessed as protection against 5 X LD50 paraoxon-induced poisoning measured as time required to postpone onset of symptoms at 100 mg/kg, ip (reference value: 2.9 +/- 0.5 mins); conditions: route intraperitoneal
Rattus norvegicus [13] = test: Increase in soman-induced hypothermia in ip dosed rat administered 1 hr after soman-challenge (reference value: 2.47 +/- 0.15 degC)

Structure (SMILES)	Activity (Rattus norvegicus [4]) [%]	Activity (Rattus norvegicus [8]) [%]	Activity (Rattus norvegicus [9]) [%]	Ratio (Mus musculus [10])	also measured
CCN(CC)CCCOC(=O)/C=N\O	–	–	–	–	Activity (Rattus norvegicus [1]): 47%; Activity (Rattus norvegicus [2]): 83%
O/N=C/c1cc[n+](COC[n+]2ccc(/C=N/O)cc2)cc1.[Cl-].[Cl-]	60	–	–	–	Activity (Rattus norvegicus [3]): 40%; Activity (Rattus norvegicus [5]): 30%
CS(=O)(=O)[O-].C[n+]1ccccc1C=NO	0	–	–	–	Activity (Rattus norvegicus [6]): 23%; LD50 (Mus musculus [7]): 0.762 mg/kg
Cc1nsc(/C=N/[O-])n1.[Na+]	–	23	60	5.6	–
Cc1nnc(/C=N/[O-])s1.[Na+]	–	< 10	< 10	4.2	–
CC(=O)/C=N/O	40	–	–	–	–
[Na+].[O-]/N=C/c1cnns1	–	53	63	5	LD (Mus musculus [11]): 1.5 mg/kg; Time (Rattus norvegicus [12]): 3.7 min; T (Rattus norvegicus [13]): 3.05 °C
